## Ab-14 light chain CDR variants: yeast mating affinities

From the AlphaSeq antibody data of Engelhart et al. 2022 (doi:10.1038/s41597-022-01779-4), copy in the FLAb collection.

Antigen: PDVDLGDISGINAS, a 14-residue peptide of the SARS-CoV-2 spike HR2 region.

Ab-14 is the parent antibody, in scFv form: VH, then a 15-residue (Gly4Ser)3 linker, then VL. The heavy chain is unchanged in all variants.
VH: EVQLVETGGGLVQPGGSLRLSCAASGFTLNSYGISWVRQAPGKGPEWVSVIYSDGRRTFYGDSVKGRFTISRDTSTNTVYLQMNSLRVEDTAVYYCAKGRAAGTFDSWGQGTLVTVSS
VL: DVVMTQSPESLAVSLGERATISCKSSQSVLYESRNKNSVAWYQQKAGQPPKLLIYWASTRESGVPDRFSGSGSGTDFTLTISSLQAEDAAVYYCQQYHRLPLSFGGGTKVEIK

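The starting antibody came from a phage panning campaign against this peptide. The library (AAYL50) carries one to three amino acid substitutions per variant, with no insertions or deletions. AlphaSeq pools MATa yeast showing the antibodies with MATalpha yeast showing the peptide. Pairs that bind mate more often; barcode pairs of the diploids are counted by sequencing. The ratio of observed to expected reads was calibrated, replicate by replicate, on BCL2-family standards whose Kd was known from biolayer interferometry. There are three technical replicates.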

Variants are written as CDR1, CDR2 and CDR3 of the light chain (limits as in the source). Parent: KSSQSVLYESRNKNSVA, WASTRES, QQYHRLPLS.
Every variant below is changed at A57 of the VL (sequential numbering).
Affinities are written as log10 Kd with Kd in nM; a lower number is a better binder.
Averages over replicates are reported, and they cover detected replicates only.
An entry "nd" has no value in the source: the pair was not observed among the diploids in that replicate. This suggests poor binding but is not conclusive.
Empty control strains, which show no peptide, gave a signal in 18% of pairings with library AAYL50; the median was 4.19 and 95% of these signals were weaker than 2.99. No background was subtracted.
In this assay the parent's reference entry averaged 0.65; its copy inside this library read 1.68.

The variant KSSQSVLYESRNKNSVA, WQSTRMS, QQYHRVPLS showed 1.91, 1.97, 1.99 (mean 1.96).
The variant RSSQSVLYESRNKNSVA, WFSTRES, QQYHRLFLS showed nd, nd, nd.
The variant KSSQSVLYESRNKNSVA, WKLTRES, QQYHRLPLS showed nd, nd, nd.
The variant KSKQSVLYESRNKNSVA, WYSTRES, QQYMRLPLS showed nd, 3.86, nd.
The variant KSSQSVLYESRNKNSVA, WFSTRAS, QQYHRLPSS showed nd, nd, 3.59.
The variant KSSQGVLYESRNKNSVA, WQSTIES, QQYHRLPLS showed nd, nd, nd.
The variant KSSQSVLYESRNKNSCA, WTSTREF, QQYHRLPLS showed nd, nd, nd.
The variant KSSQSVLYESRNKTSVA, WIMTRES, QQYHRLPLS showed nd, nd, 4.02.
The variant KSSQSCLYESRNKNSVA, WRSTRES, QQYHELPLS showed nd, 2.94, nd.
The variant KSSRSVLYESRNKNEVA, WSSTRES, QQYHRLPLS showed nd, nd, 2.61.
The variant KSSQSVLYESRNKNSVA, WISTRES, QQYHRLPLH showed 3.57, 4.45, nd (mean 4.01).
The variant KSSQSVLYESRNKNSVA, WESTRES, QQYPRLPCS showed nd, nd, nd.
The variant KSSQSVLYEKYNKNSVA, WYSTRES, QQYHRLPLS showed nd, nd, nd.
The variant KSSQQILYESRNKNSVA, WISTRES, QQYHRLPLS showed 3.66, 3.57, 4.86 (mean 4.03).
The variant KSSQSVLVESRNKNSVA, WDSTRES, QQYHRLPLS showed 0.92, 1.06, 0.93 (mean 0.97).
The variant KSSQSVLYESRNKNSVA, WRSDREY, QQYHRLPLS showed nd, nd, nd.
The variant KSSQSVLYESRNKNNVA, WESTRES, QQYHREPLS showed nd, nd, 2.54.
The variant KSSQSVLYKSRNKNSVV, WGSTRES, QQYHRLPLS showed nd, nd, nd.
The variant QSSQSVLYESRNKNSVA, WHSTRES, QQYHRMPLS showed 4.01, 2.95, 4.29 (mean 3.75).
The variant KSSQSVLYESRNKNSVA, WMGTRES, QFYHRLPLS showed 3.03, 3.96, nd (mean 3.50).
The variant KFSQSVLYESRNKNSVA, WFSTRES, QQYHRLPLE showed nd, nd, nd.
The variant KSCQSVLYESRNKNSVA, WESTRES, QQYHRLPLC showed nd, nd, nd.
The variant KSSQSVLYESRNKNSVA, WNSRRES, QQYHRLPYS showed nd, nd, nd.
The variant KSSQSVLYKSRNKNSVA, WPSTRES, QQYHILPLS showed nd, nd, nd.
The variant KSSQSPLYESRNKNSVA, WISDRES, QQYHRLPLS showed 5.11, nd, nd.
The variant KSSQSVLYESRNKESVA, WFSTRES, QQQHRLPLS showed nd, nd, nd.
The variant KSSQSVLHESRNKNSVA, WGSIRES, QQYHRLPLS showed 0.69, 0.96, 0.90 (mean 0.85).
The variant KSPQSVLYESRNKNSVA, WNSTRES, QQYHRLPLS showed nd, nd, nd.
The variant KSSQSVLYESRNKQSVA, FMSTRES, QQYHRLPLS showed 2.65, 2.58, 2.66 (mean 2.63).
The variant KSSQSVLYESRNKNSVA, WWSERHS, QQYHRLPLS showed 6.29, nd, nd.
The variant KSSQSVLYESRNKNSVA, WNSARES, QQYHRLPLS showed nd, 2.96, nd.

The last 5 entries again:

CDR-L1	CDR-L2	CDR-L3	log10 Kd, replicates	mean, log10 nM
KSSQSVLHESRNKNSVA	WGSIRES	QQYHRLPLS	0.69, 0.96, 0.90	0.85
KSPQSVLYESRNKNSVA	WNSTRES	QQYHRLPLS	nd, nd, nd	nd
KSSQSVLYESRNKQSVA	FMSTRES	QQYHRLPLS	2.65, 2.58, 2.66	2.63
KSSQSVLYESRNKNSVA	WWSERHS	QQYHRLPLS	6.29, nd, nd	6.29
KSSQSVLYESRNKNSVA	WNSARES	QQYHRLPLS	nd, 2.96, nd	2.96